The structures appear in SMILES notation. Several values for one entry are separate records, joined by “and”; a condition that tells them apart may be missing. Identical values can stand only once. The list shows a part of the results, in another mix than the full data. Activity calls are given as the source filed them. The call rests on the fitted dose curve; in most records, active means well fitted inhibition curve with a large enough effect; inconclusive means small, poorly fitted or top-dose-only effect; inactive means no such curve, though single readings can be large or run the other way.

The chains behind the UniProt entries cited, without tags or fusion partners.
UniProt O89049, whole entry, looked up: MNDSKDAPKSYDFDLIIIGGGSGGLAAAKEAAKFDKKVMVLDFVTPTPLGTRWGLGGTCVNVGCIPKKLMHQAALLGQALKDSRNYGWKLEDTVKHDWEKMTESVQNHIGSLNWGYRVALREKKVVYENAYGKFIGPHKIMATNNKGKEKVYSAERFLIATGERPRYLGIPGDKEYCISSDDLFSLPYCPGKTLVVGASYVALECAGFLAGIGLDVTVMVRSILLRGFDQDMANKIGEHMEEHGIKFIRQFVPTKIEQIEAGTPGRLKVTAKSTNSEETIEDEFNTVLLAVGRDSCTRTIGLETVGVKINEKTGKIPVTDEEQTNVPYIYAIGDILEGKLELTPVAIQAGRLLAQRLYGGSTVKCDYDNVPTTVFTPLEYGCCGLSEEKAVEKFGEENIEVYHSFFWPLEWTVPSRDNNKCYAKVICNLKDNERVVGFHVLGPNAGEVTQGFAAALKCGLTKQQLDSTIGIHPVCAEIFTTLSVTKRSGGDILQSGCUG

The test addresses Thioredoxin reductase 1, cytoplasmic (Rattus norvegicus) (UniProt O89049). Nature of the test: qHTS Assay for Substrates of Mammalian Selenoprotein Thioredoxin Reductase 1 (TrxR1): qHTS. Further: nearly all actives have a fitted effect of over 50% in size. To be noted: purified TrxR1 substrate turnover, NADPH consumption readout.
[1] abbreviates: at 114 µM (top of the series) unless noted.
On the % scale 0 is the no-effect control and ±100 the full control effect.

For `COc1cc([N+](=O)[O-])c([N+](=O)[O-])cc1OC`, under setting [1], the activity change, negative = substrate turnover was inactive: -0.346%. Consider `CC(C)=N/N=C(\N)N[N+](=O)[O-]`, for which, under setting [1], the activity change, negative = substrate turnover was inactive: -0.687% [at 57.1 µM]. The same measure, in the same setting: as for `CN(C)C(=O)OCCc1n(C)cc[n+]1C`, the figure is inactive: 6.87%; as for `CC1CCN(C(=O)Oc2c(Cl)cc(Cl)c3cccnc23)CC1`, inactive: -1.84%; as for `Nc1ccc([As](=O)(O)c2ccc(N)cc2)cc1`, inactive: 3.15%. Same read-out and setting: as for `C[N+]1=C2C=CC=CC=C2SC12C([N+](=O)[O-])=CC([N+](=O)[O-])=C[C-]2[N+](=O)[O-]` (configuration not stated), the figure is inactive: -11.4%; as for `CCN(/C(=N/P(=O)(N1CCOCC1)N1CCOCC1)N1CCOCC1)c1ccc(OC)cc1`, inactive: 3.71% [at 57.1 µM]. Still for that read-out and setting: as for `O=P(/N=c1/nc(-c2ccccc2)n(-c2ccccc2)s1)(Nc1ccccc1)Nc1ccccc1`, the figure is inactive: -1.67%; as for `O=C(Nc1cc([As](=O)(O)O)ccc1O)c1ccccc1`, inactive: 0.401%. With `Cc1cc(C=O)ccc1N(CCCl)CCCl`, the activity change, negative = substrate turnover under setting [1] is inactive: 1.67%. Regarding `O=P1(N(CCCl)CCCl)OCCCS1` (configuration not stated), the activity change, negative = substrate turnover under setting [1] was inactive: -2.46% [at 2.29 µM]. Consider `COC(=O)C1(C)COP(=O)(Nc2ccccc2)OC1` (configuration not stated), for which the activity change, negative = substrate turnover under setting [1] was inactive: 10.6% [at 57.1 µM]. Still for that read-out and setting: as for `O=[N+]([O-])c1cccc(NC2=NCC(CBr)S2)c1` (configuration not stated), the figure is inactive: -0.245%; as for `O=C(O)CNc1ccc([As](=O)(O)O)cc1`, inactive: -14.4% [at 57.1 µM]; as for `CC(C)(C)C(=O)NC(Sc1ccncn1)C(Cl)(Cl)Cl` (configuration not stated), inactive: 10.1%.

As to `O=[N+]([O-])c1ncn(CCn2ncnc2[N+](=O)[O-])n1`, the activity change, negative = substrate turnover under setting [1] is inactive: -3.33%.

For the compound `Cc1cc(SC(NC(=O)c2ccc(F)cc2)C(Cl)(Cl)Cl)ncn1` (configuration not stated), the activity change, negative = substrate turnover under setting [1] is inactive: -9.51%. The same measure, in the same setting: as for `CCOP(=O)(Nc1ccccc1)OCC`, the figure is inactive: -2.03%. Still for that read-out and setting: as for `Cc1ccc(NP(=O)(Oc2ccccc2F)Oc2ccccc2F)nc1`, the figure is inactive: 19.6%. Regarding `CN(C(=O)Cc1ccc(Cl)c(Cl)c1)[C@H]1CCCC[C@@H]1N1CCCC1`, the activity change, negative = substrate turnover (at 57.1 µM (top of the series)) is inactive: 2.9% and inactive: 12.9%; the activity change, negative = substrate turnover (at 114 µM (top of the series)) is inactive: 3.25%. In the case of `CC(=O)Nc1ccc([As](=O)(O)O)cc1`, the activity change, negative = substrate turnover under setting [1] is inactive: 4.08%. The same measure, in the same setting: as for `O=C(O)c1ccccc1[As](=O)(O)O`, the figure is inactive: 4.69%.

As to `CCCC1OP(N)(=O)OCC1CC` (configuration not stated), the activity change, negative = substrate turnover under setting [1] is inactive: -7.32% [at 57.1 µM]. `O=P(Nc1nc2ccc(Cl)cc2s1)(c1ccccc1)c1ccccc1`: under setting [1], the activity change, negative = substrate turnover is inactive: 4.92% [at 57.1 µM]. `CCN(N=Nc1nonc1N)c1nonc1N`: the activity change, negative = substrate turnover under setting [1] is inactive: -1.67% [at 57.1 µM]. Still for that read-out and setting: as for `Nc1cccc2ccc([As](=O)(O)O)cc12`, the figure is inactive: 43.9% [at 57.1 µM]; as for `Nc1c(O)cc([N+](=O)[O-])cc1[N+](=O)[O-]`, inactive: -6.94%. Still for that read-out and setting: as for `COc1ccccc1OP(=O)(Nc1ccc(C)cn1)Oc1ccccc1OC`, the figure is inactive: -2.17% [at 57.1 µM]; as for `Cc1ccc(OP(=O)(Nc2nccs2)Oc2ccc(C)cc2)cc1`, inactive: -5.34%; as for `CN1CCCC(OC(=O)C(c2ccccc2)c2ccccc2)C1` (configuration not stated), inactive: 7.08%. In the case of `Clc1ccc(Cl)c(NC2=NCC(CBr)S2)c1` (configuration not stated), the activity change, negative = substrate turnover under setting [1] is inactive: 6.91% [at 57.1 µM]. As for `NC(=O)c1cc([N+](=O)[O-])cc([N+](=O)[O-])c1N`, the activity change, negative = substrate turnover under setting [1] was inactive: -8.59%.

As for `O=[N+]([O-])c1cc2c(cc1[N+](=O)[O-])OCO2`, the activity change, negative = substrate turnover under setting [1] was inactive: 15.5%. The same measure, in the same setting: as for `CN(C(=O)Cc1ccc(Cl)c(Cl)c1)[C@H]1CCCC[C@H]1N1CCCC1`, the figure is inactive: 0.0034%; as for `Cc1ccc(N/C(=N/P(=O)(N2CCOCC2)N2CCOCC2)N2CCOCC2)cc1`, inactive: -10.8% [at 57.1 µM]. `Nc1cc(N)c2nonc2c1[N+](=O)[O-]`: the activity change, negative = substrate turnover under setting [1] was inactive: 3.9% [at 57.1 µM]. Still for that read-out and setting: as for `CC(C)CC(=O)NC(Sc1ccc(Cl)cc1)C(Cl)(Cl)Cl` (configuration not stated), the figure is inactive: 2.61%. For `Oc1ccccc1CNc1ccccn1`, the activity change, negative = substrate turnover under setting [1] was inactive: 10.9%.

As to `O=C(NC(Sc1ccncn1)C(Cl)(Cl)Cl)c1ccccc1` (configuration not stated), the activity change, negative = substrate turnover under setting [1] was inactive: -14.7%. Same read-out and setting: as for `CCc1cc(O)c([N+](=O)[O-])c(C)c1[N+](=O)[O-]`, the figure is inactive: 8.06% [at 57.1 µM].

For the compound `CC(C)(C)C(=O)NC(Sc1ccccc1)C(Cl)(Cl)Cl` (configuration not stated), the activity change, negative = substrate turnover under setting [1] is inactive: 5.44% [at 57.1 µM].

Take `O=P1(Nc2nc3ccc(Cl)cc3s2)COc2ccccc2O1` (configuration not stated): the activity change, negative = substrate turnover under setting [1] was inactive: -5.09% [at 57.1 µM]. Same read-out and setting: as for `CCOc1ccc(C2=NCC(CBr)S2)cc1` (configuration not stated), the figure is inactive: -1.63%; as for `CC(=O)Nc1ccc([As](=O)(O)O)c(O)c1`, inactive: 8.57%; as for `CC(=O)c1ccc(N2CC2c2ccncc2)cc1` (configuration not stated), inactive: 4.77%. Regarding `N#C/C(=C\c1ccc(N(CCBr)CCBr)cc1)C(N)=O`, under setting [1], the activity change, negative = substrate turnover is inactive: 5.2% [at 11.4 µM]. Same read-out and setting: as for `COC(=O)C1(C)COP(=O)(NCc2ccccc2)OC1` (configuration not stated), the figure is inactive: 5.03% [at 11.4 µM]; as for `Cc1ccccc1CN(C)C(=O)COC(=O)C(O)(c1ccccc1)c1ccccc1`, inactive: -14%; as for `C[C@H]1OP(=O)(Oc2ccccc2)C[C@@H]2O[C@@H]21` (some centres not stated), inactive: 4.8%. The same measure, in the same setting: as for `C[C@@H]1C=CCP(=O)(Oc2ccccc2)O1` (some centres not stated), the figure is inactive: 11.1% [at 57.1 µM]; as for `O=P1(N(CCCl)CCCl)OCCC2CCCCN21` (configuration not stated), inactive: 6.92% [at 2.29 µM]. On the same count and under the same terms, as for `CCNC(=S)/N=C(\N)N[N+](=O)[O-]`, the figure is inactive: 0.824%. Consider `O=C(NC1CCS(=O)(=O)C1)NP(=S)(Oc1ccccc1)Oc1ccccc1` (configuration not stated), for which the activity change, negative = substrate turnover under setting [1] was inactive: 3.59%. On the same count and under the same terms, as for `c1ccc(-c2nn[nH]n2)c(-c2nn[nH]n2)c1`, the figure is inactive: 4.24% [at 57.1 µM]; as for `O=[N+]([O-])c1cc([N+](=O)[O-])c2nc[nH]c2c1`, inactive: -1.74%. Same read-out and setting: as for `CC(NC(=O)COC(=O)C(O)(c1ccccc1)c1ccccc1)c1ccccc1` (configuration not stated), the figure is inactive: -2.77%. The same measure, in the same setting: as for `Cc1ccccc1OP(=O)(Nc1ccccn1)Oc1ccccc1C`, the figure is inactive: -19.8% [at 57.1 µM]; as for `O=c1c2cc([N+](=O)[O-])ccc2[nH]c2c([N+](=O)[O-])cc([N+](=O)[O-])cc12`, inactive: -1.81% [at 57.1 µM].

Take `CN(C)C(=O)Oc1noc2ccccc12`: the activity change, negative = substrate turnover under setting [1] is inactive: 12% [at 57.1 µM]. On the same count and under the same terms, as for `COC(=O)c1cc2c(s1)N=C(c1ccccc1)N(C)P2(=O)N1CCOCC1` (configuration not stated), the figure is inactive: 7.55% [at 57.1 µM]. Consider `Cc1ccc(OP(=O)(Nc2ccccn2)Oc2ccc(C)cc2)cc1`, for which the activity change, negative = substrate turnover under setting [1] is inactive: -5.09% [at 57.1 µM]. On the same count and under the same terms, as for `CC(=O)NC(SC(=S)N(CC(C)C)CC(C)C)C(Cl)(Cl)Cl` (configuration not stated), the figure is inactive: -5.85%; as for `CN(C(=O)Cc1ccc(Cl)c(Cl)c1)[C@@H]1CCCC[C@@H]1N1CCCC1`, inactive: 5.85% [at 57.1 µM]; as for `O=C(OC1CN2CCC1CC2)c1ccccc1` (configuration not stated), inactive: 6.86% [at 57.1 µM]. Same read-out and setting: as for `CCC(=O)N1C2C3N(C(=O)CC)C1C1N(C(=O)CC)C(C(N1C(=O)CC)N3C(=O)CC)N2C(=O)CC`, the figure is inactive: 0.961%. The same measure, in the same setting: as for `O=P(Nc1nc2ccccc2s1)(c1ccccc1)c1ccccc1`, the figure is inactive: 5.64%; as for `C[C@H]1OP(=O)(Oc2ccccc2)[C@H](O)[C@H](O)[C@H]1N=[N+]=[N-]` (some centres not stated), inactive: -3.85% [at 57.1 µM]; as for `COc1ccc(N)c([N+](=O)[O-])c1[N+](=O)[O-]`, inactive: 1.38%. In the case of `O=P(Nc1ccccn1)(c1ccc(Br)cc1)c1ccc(Br)cc1`, the activity change, negative = substrate turnover under setting [1] was inactive: 3.31%. As for `CN(C)C1(CNC(=O)c2ccc(Cl)c(S(N)(=O)=O)c2)CCCCC1`, the activity change, negative = substrate turnover under setting [1] was inactive: 10.7% [at 57.1 µM]. Same read-out and setting: as for `C(Cc1nn[nH]n1)Cc1nn[nH]n1`, the figure is inactive: 1.34%; as for `Nc1ccc([As](=O)(O)c2ccc([N+](=O)[O-])cc2)cc1`, inactive: -0.118%. On the same count and under the same terms, as for `O=C(OC1CN2CCC1CC2)c1cccc(Cl)c1` (configuration not stated), the figure is inactive: 7.12% [at 57.1 µM]; as for `O=[N+]([O-])c1ccc(O)c(/C=N/Nc2ccc([N+](=O)[O-])cc2[N+](=O)[O-])c1`, inactive: -7.61%. Take `O=[N+]([O-])c1ncn(CCn2cnc([N+](=O)[O-])n2)n1`: under setting [1], the activity change, negative = substrate turnover is inactive: -0.668%. Still for that read-out and setting: as for `CC(=O)NC(SC(=S)N(C)C)C(Cl)(Cl)Cl` (configuration not stated), the figure is inactive: 11%. On the same count and under the same terms, as for `O=[As](O)(c1ccccc1)c1ccc(O)cc1`, the figure is inactive: 6.79%; as for `c1nnnn1CCn1cnnn1`, inactive: 0.136%; as for `CC(C)C(=O)NC(Sc1ccccc1)C(Cl)(Cl)Cl` (configuration not stated), inactive: -20.5% [at 57.1 µM]. Still for that read-out and setting: as for `O=P(Nc1nccs1)(c1ccccc1)c1ccccc1`, the figure is inactive: 2.59%. For `COc1cccc([N+](=O)[O-])c1[N+](=O)[O-]`, the activity change, negative = substrate turnover under setting [1] was inactive: 5.82%.

The values are drawn from PubChem BioAssay AID588456 (National Center for Advancing Translational Sciences (NCATS), 2011).
